Source: BindingDB's records for 30383374
pKi: −log10 of the molar value.

By UniProt entry, the sequences of proteins in these tests, tags left out. Residues count along the entry.
UniProt P06276, 29-602 limits assumed: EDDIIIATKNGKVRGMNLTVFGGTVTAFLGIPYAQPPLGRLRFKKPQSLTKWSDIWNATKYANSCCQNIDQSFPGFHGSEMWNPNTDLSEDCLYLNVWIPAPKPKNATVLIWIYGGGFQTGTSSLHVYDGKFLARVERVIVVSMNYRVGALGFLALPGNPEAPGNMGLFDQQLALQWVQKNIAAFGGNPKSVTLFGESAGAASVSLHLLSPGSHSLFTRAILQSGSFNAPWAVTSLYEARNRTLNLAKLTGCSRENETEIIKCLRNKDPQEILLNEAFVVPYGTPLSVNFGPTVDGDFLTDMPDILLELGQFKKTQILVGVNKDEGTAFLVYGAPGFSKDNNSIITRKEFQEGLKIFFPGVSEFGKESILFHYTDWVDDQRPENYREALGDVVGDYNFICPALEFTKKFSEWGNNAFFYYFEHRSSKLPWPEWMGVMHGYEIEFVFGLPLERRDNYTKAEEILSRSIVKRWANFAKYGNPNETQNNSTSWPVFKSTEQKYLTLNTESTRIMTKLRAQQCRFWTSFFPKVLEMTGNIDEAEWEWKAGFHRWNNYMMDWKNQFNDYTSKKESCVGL

What follows are compounds tested against Cholinesterase (Homo sapiens, UniProt P06276) (assay: ASSAY_NAME: ChEMBL_1788970 (CHEMBL4260704) DESCRIPTION: Reversible inhibition of human plasma BChE using acetylthiocholine iodide as substrate by Ellman spectrophotometric method).

Q: NC(=O)c1cc[n+](CCC[n+]2cc(Cl)c(C=NO)c(Cl)c2)cc1 was tested. Which pKi did it give?
A: The pKi was 3.71.

Q: NC(=O)c1cc[n+](CCC[n+]2ccc(C=NO)c(Cl)c2)cc1 was tested. Which pKi did it give?
A: The pKi was 3.56.

Q: How did the pKi turn out when NC(=O)c1cc[n+](CC=CC[n+]2ccc(C=NO)c(Cl)c2)cc1 was run?
A: The pKi was 3.53.

Q: With NC(=O)c1cc[n+](CC=CC[n+]2cc(Cl)c(C=NO)c(Cl)c2)cc1 as the compound, how does the pKi read?
A: Its pKi is 3.73.

Q: How did the pKi turn out when NC(=O)c1cc[n+](CCCC[n+]2ccc(C=NO)c(Cl)c2)cc1 was run?
A: The pKi was 3.58.

Q: NC(=O)c1cc[n+](CCCC[n+]2cc(Cl)c(C=NO)c(Cl)c2)cc1 was tested. Which pKi did it give?
A: The pKi was 3.85.
